Permeability data for macrocyclic peptides

Data: CycPeptMPDB; original report Naylor et al. 2018, doi:10.1021/acs.jmedchem.8b01259.

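Lipid, pH, incubation time, direction and concentration are not recorded in the data file. Other peptides of the study may be missing here. Entries at the database's floor value (log10 P of -10) are not listed.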

PAMPA is the parallel artificial membrane permeability assay, which has no cells and reads passive diffusion. RRCK is a low-efflux MDCK cell line. P is given in units of 10^-6 cm/s (from log10 values with two decimals); larger means faster passage. Cells with "–" have no entry in this list.

SMILES	PAMPA (10^-6 cm/s)	RRCK (10^-6 cm/s)
CC(C)C[C@@H]1NC(=O)[C@H](CC(C)C)NC(=O)[C@@H](CC(C)C)NC(=O)[C@H]2CCCN2C(=O)[C@H](Cc2ccc(O)cc2)NC(=O)[C@H](CC(C)C)NC1=O	–	2.8
CC[C@H]1C(=O)N[C@@H](CC(C)C)C(=O)N2CCC[C@@H]2C(=O)N(C)[C@@H](Cc2ccccc2)C(=O)N[C@@H](CC(C)C)C(=O)N(C)[C@H](C)C(=O)N1C	13	–
CC(C)C[C@@H]1NC(=O)[C@H](CC(C)C)NC(=O)[C@@H](CC(C)C)NC(=O)[C@@H](CC(C)C)NC(=O)[C@H]2CCCN2C(=O)[C@H](Cc2ccc(O)cc2)NC1=O	–	0.95
CC(C)C[C@@H]1NC(=O)[C@H](CC(C)C)NC(=O)[C@@H](CC(C)C)NC(=O)[C@H]2CCCN2C(=O)[C@H](Cc2ccc(O)cc2)NC(=O)[C@@H](CC(C)C)NC1=O	–	19
CC(C)C[C@H]1NC(=O)[C@H]2CCCN2C(=O)[C@H](Cc2ccc(O)cc2)NC(=O)[C@@H](CC(C)C)NC(=O)[C@@H](CC(C)C)NC(=O)[C@@H](CC(C)C)NC1=O	–	0.49
CC(C)C[C@@H]1NC(=O)[C@@H](CC(C)C)NC(=O)[C@H]2CCCN2C(=O)[C@H](Cc2ccc(O)cc2)NC(=O)[C@@H](CC(C)C)NC(=O)[C@@H](CC(C)C)NC1=O	–	1.9
CC(C)C[C@@H]1NC(=O)[C@@H](CC(C)C)NC(=O)[C@H](CC(C)C)NC(=O)[C@@H](CC(C)C)NC(=O)[C@H]2CCCN2C(=O)[C@H](Cc2ccc(O)cc2)NC1=O	–	0.83
CC[C@H](C)[C@@H]1NC(=O)[C@H](Cc2ccccc2)N(C)C(=O)[C@H](Cc2ccccc2)NC(=O)CN(C)C(=O)[C@@H]2CCCN2C(=O)[C@@H](Cc2ccccc2)N(C)C(=O)[C@H](CC(C)C)NC1=O	–	0.29
CC(C)C[C@@H]1NC(=O)[C@@H](CC(C)C)NC(=O)[C@@H](CC(C)C)NC(=O)[C@H]2CCCN2C(=O)[C@H](Cc2ccc(O)cc2)NC(=O)[C@@H](CC(C)C)NC1=O	–	4.1
CC(C)C[C@@H]1NC(=O)[C@@H](CC(C)C)NC(=O)[C@@H](CC(C)C)NC(=O)[C@@H](CC(C)C)NC(=O)[C@H]2CCCN2C(=O)[C@H](Cc2ccc(O)cc2)NC1=O	–	0.36

The last 2 entries again:

SMILES	PAMPA (10^-6 cm/s)	RRCK (10^-6 cm/s)
CC(C)C[C@@H]1NC(=O)[C@@H](CC(C)C)NC(=O)[C@@H](CC(C)C)NC(=O)[C@H]2CCCN2C(=O)[C@H](Cc2ccc(O)cc2)NC(=O)[C@@H](CC(C)C)NC1=O	–	4.1
CC(C)C[C@@H]1NC(=O)[C@@H](CC(C)C)NC(=O)[C@@H](CC(C)C)NC(=O)[C@@H](CC(C)C)NC(=O)[C@H]2CCCN2C(=O)[C@H](Cc2ccc(O)cc2)NC1=O	–	0.36